This passage reports IC50 results from ChEMBL document CHEMBL1154180, “Pyrazole-based arylalkyne cathepsin S inhibitors. Part II: optimization of cellular potency” (Bioorg Med Chem Lett, 2009).

Amino acid sequences for entries named in this document (tags omitted).
UniProt P25774, whole entry: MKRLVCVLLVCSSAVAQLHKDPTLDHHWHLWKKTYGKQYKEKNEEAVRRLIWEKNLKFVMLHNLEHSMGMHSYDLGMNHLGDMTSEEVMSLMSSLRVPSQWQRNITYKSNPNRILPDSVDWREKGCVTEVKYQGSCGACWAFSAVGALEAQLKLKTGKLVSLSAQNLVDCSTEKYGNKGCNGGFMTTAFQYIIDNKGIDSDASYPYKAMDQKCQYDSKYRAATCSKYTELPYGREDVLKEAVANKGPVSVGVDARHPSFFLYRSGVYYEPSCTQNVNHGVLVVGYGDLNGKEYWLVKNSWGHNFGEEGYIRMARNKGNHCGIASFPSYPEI

pIC50: −log10 of the molar value.

The assay has as its target Cathepsin S (Homo sapiens, UniProt P25774). Kind of assay: Inhibition of cathepsin S in human JY cells assessed as invariant chain li degradation by Western blotting. The assay is classed as cell-based.

Regarding `CC(NCc1ccc(C#Cc2cc(-c3nn(CCCN4CCOCC4)c4c3CN(S(C)(=O)=O)CC4)ccc2Cl)cc1)c1ccccc1` (stereo unspecified), the pIC50 is 6.00.

For orientation: pIC50 means −log10 of the IC50, conventionally taken in molar units.
